In US20020177166A1, “Binding motif of a receptor” (MEDVET SCIENCE PTY.LTD., priority 2000, published 2002):

Experiments:
Format in all cases: cell-based
CTL-EN cells [1] = assay: CTL-EN cell viability, trypan blue exclusion; conditions: 0.1% FCS; for viability: CTL-EN wtβc, up to 3 days; for viable cells: CTL-EN βcHSRSLP→EFAAAA
Method: (a) CTL-EN cells expressing IL-3Ra and either wtβc or βcHSRSLP→EFAAAA were washed and then plated in duplicate at 2.5×10^5 cells/ml in DMEM containing 0.1% FCS and either 10 ng/ml IL-3, 10 ng/ml IL-2 or long/ml IL-3 and 5 mM LY294002. Viable cells were counted using the trypan blue exclusion method after 4 days. The results shown are typical of 3 experiments. (b) CTL-EN cells expressing IL-3Ra and either wtβc or βcHSRSLP→EFAAAA were washed and then plated in triplicate at 5×10^5 cells/ml in DMEM containing 0.1% FCS and either no IL-3, 1 ng/ml IL-3 or 10 ng/ml IL-3. Metabolic activity was measured each day using the CellTiter96 AQueous one solution cell proliferation assay according to the manufacturers instructions. Shown are the raw absorbance values (490 nm) plotted against day for CTL-EN cells expressing wtβc in the presence of no IL-3 (u), 1 ng/ml IL-3 (I) or 10 ng/ml IL3 (n) and CTL-EN cells expressing the βcHSRSLP→EFAAAA mutant in the presence of no IL-3 (u) or 10 ng/ml IL-3 (t).
Given that 14-3-3 binding to Ser585 of βc is required for PI 3-kinase activation in response to IL-3 and also the important role PI 3-kinase is thought to play in mediating survival signals, we then examined the ability of IL-3 to promote long-term survival in CTL-EN cells expressing the βcHSRSLP→EFAAAA mutant receptor. […] However, a clear defect in the survival of CTL-EN cells expressing the βcHSRSLP→EFAAAA mutant was observed under low serum conditions. CTL-EN cells expressing the wt IL-3 receptor remain greater than 90% viable for up to 3-4 days under low serum conditions (0.1% FCS) in the presence of IL-3. To test the ability of IL-3 to promote cell survival, CTL-EN cells expressing either wtβc or βcHSRSLP→EFAAAA were plated out at 2.5×10^5 cells/ml in the presence of IL-3 or IL-2 in medium containing 0.1% FCS and viable cells were counted after 4 days.
The finding that 14-3-3 binding to Ser585 of βc is required for PI 3-kinase recruitment and activation in response to IL-3 and also the important role PI 3-kinase is thought to play in mediating survival signals raised the possibility that phosphorylation of Ser585 of βc was important in regulating cell survival. […] However, a defect in the survival of CTL-EN cells expressing the βcHSRSLP→EFAAAA mutant was observed under low serum conditions. Thus, while serum is neither necessary nor sufficient in promoting IL-3-mediated CTL-EN cell survival (unpublished observations) it can augment IL-3-mediated survival in cells expressing the βcHSRSLP→EFAAAA mutant receptor. CTL-EN cells expressing either wtβc or βcHSRSLP→EFAAAA were plated out at 5×10^5 cells/ml in the presence of 10 ng/ml IL-310.1% FCS and viable cells were counted over 3 days. […] The viability of CTL-EN cells expressing wtβc or βcHSRSLP→EFAAAA were maintained in the presence of the IL-2 control cytokine.

CTL-EN cells [2] = assay: DNA laddering analysis; conditions: 20 ng/ml IL-2 or 50 ng/ml IL-3, 48 hours
Method: (§1) Loss of cell viability in CTL-EN cells expressing the βcHSRSLP→EFAAAA in response to IL-3 was also reflected in loss of cellular metabolic activity as determined by the MTS reduction assay. […] To determine if the loss in cellular viability was due to apoptosis, we performed DNA laddering analysis. CTL-EN cells expressing either the wtβc or the βcHSRSLP→EFAAAA mutant were plated out as described above in 20 ng/ml IL-2, no factor (NF) or 50 ng/ml IL-3. Cells were harvested 48 hours later, the DNA extracted and subjected to agarose gel electrophoresis and ethidium bromide staining. […] As an additional means of examining the mode of cell death we performed combined annexin V and propidium iodide staining. For these experiments we examined CTL-EN cells expressing the wtβc, and the βcHSRSLP→EFAAAA mutant as well as two additional mutants, βcS585G and βcRSL→AAA. Cells were plated out in 20 ng/ml IL-2, no factor or 50 ng/ml IL-3, stained with annexin V and propidium iodide after 30 hours and analysed by flow cytometry. […] In the absence of factor, increased apoptotic cells were detected for wtβc (50.0%), βcS585G (45.1%), βcRSL→AAA (55.0%), and the βcHSRSLP→EFAAAA (37.0%) mutant. […] Together, the results shown in FIGS. 24C and 24D indicate that the defect in cell survival is due to increased apoptosis.

CTL-EN cells [3] = assay: Annexin V (and propidium iodide) staining, flow cytometry; conditions: for apoptotic cells (annexin V and propidium iodide positive cells): 20 ng/ml IL-2 or 50 ng/ml IL-3, 30 hours; for annexin V staining: 0.1% FCS, 16 hours
Method: CTL-EN cells expressing IL-3Ra and either wtβc or βcHSRSLP→EFAAAA were washed and then plated at 5×10^5 cells/ml in DMEM containing 0.1% FCS and either long/ml IL-3 or 10 ng/ml IL-2 for 18 hours. Cells were then harvested by centrifugation and stained with annexin V according to the manufacturers instructions. Annexin V positive cells were then analysed by flow cytometry.
We then performed Annexin V binding studies to determine if the loss in cell viability in CTL-EN cells expressing the βcHSRSLP→EFAAAA mutant was due to apoptosis. CTL-EN cells expressing wtβc or βcHSRSLP→EFAAAA were washed and placed in medium containing 0.1% FCS and either IL-2 or IL-3 for 16 hours. The cells were then stained with annexin V and apoptotic cells were analysed by flow cytometry.
as §1

TF-1 = TF-1 proliferation assay; conditions: recombinant human cytokine produced in E. coli
Method: Recombinant human IL-3 and GM-CSF were produced in E. coli essentially as described in Barry, S. C. et al (1994) J. Biol chem, 269, 8488 and Hercus, T. R. et al (1994) Proc. Nati. Acad. Sci., 91, 5838. Cytokine purity and quantitation was determined by HPLC analysis and Coomasie staining of SDS-PAGE separated proteins. The activity of the cytokines based on the ED50 values in a TF-1 proliferation assay (Kitamura, T. et al (1989) J. Cell Physiol, 140, 323) was 0.03 ng/ml for GM-CSF and 0.1 ng/ml for IL-3.

## IL-2: IL-2 control cytokine
CTL-EN cells [1]; 5×10^5 cells/ml
  viability: maintained
CTL-EN cells [1]; after 4 days
  viable cells: able to maintain viability
CTL-EN cells [1]; 5×10^5 cells/ml, after 3 days
  viable cells: maintained
CTL-EN cells [2]; CTL-EN wtβc
  DNA laddering: no significant DNA laddering
CTL-EN cells [2]; CTL-EN βcHSRSLP→EFAAAA
  DNA laddering: no significant DNA laddering
CTL-EN cells [3]; CTL-EN wtβc
  apoptotic cells (annexin V and propidium iodide positive cells): 11.8%
  annexin V staining: negligible annexin V staining
CTL-EN cells [3]; CTL-EN βcHSRSLP→EFAAAA
  apoptotic cells (annexin V and propidium iodide positive cells): 10.0%
  annexin V staining: negligible annexin V staining
CTL-EN cells [3]; CTL-EN βcRSL→AAA
  apoptotic cells (annexin V and propidium iodide positive cells): 8.9%
CTL-EN cells [3]; CTL-EN βcS585G
  apoptotic cells (annexin V and propidium iodide positive cells): 15.3%

B1: IL-3: recombinant human IL-3 produced in E. coli (protein, UniProt P08700 20-152, looked up)
Interleukin-3: APMTQTTPLKTSWVNCSNMIDEIITHLKQPPLPLLDFNNLNGEDQDILMENNLRRPNLEAFNRAVKSLQNASAIESILKNLLPCLPLATAAPTRHPIHIKDGDWNEFRRKLTFYLKTLENAQAQQTTLSLAIF
TF-1
  ED50 in TF-1 proliferation assay: 0.1 ng/mL
CTL-EN cells [1]; 5×10^5 cells/ml
  viability: able to promote viability
CTL-EN cells [1]; after 4 days
  viable cells: 7%
CTL-EN cells [1]; 5×10^5 cells/ml, after 3 days
  viable cells: 18%
CTL-EN cells [2]; CTL-EN wtβc
  DNA laddering: no significant DNA laddering
CTL-EN cells [2]; CTL-EN βcHSRSLP→EFAAAA
  DNA laddering: clear DNA ladder typical of apoptotic cells
CTL-EN cells [3]; CTL-EN wtβc
  apoptotic cells (annexin V and propidium iodide positive cells): 24.1%
CTL-EN cells [3]; CTL-EN βcHSRSLP→EFAAAA
  apoptotic cells (annexin V and propidium iodide positive cells): 42.7%
  annexin V staining: increased annexin V staining
CTL-EN cells [3]; CTL-EN βcRSL→AAA
  apoptotic cells (annexin V and propidium iodide positive cells): 51.2%
CTL-EN cells [3]; CTL-EN βcS585G
  apoptotic cells (annexin V and propidium iodide positive cells): 46.5%
